Measurements taken from patent US7781432B2 (Gruenenthal GmbH, priority 2004, dated 2010).

Target: T1, Nucleoside Transporter (Homo sapiens, UniProt Q99808)
T1 sequence (Q99808 1-456): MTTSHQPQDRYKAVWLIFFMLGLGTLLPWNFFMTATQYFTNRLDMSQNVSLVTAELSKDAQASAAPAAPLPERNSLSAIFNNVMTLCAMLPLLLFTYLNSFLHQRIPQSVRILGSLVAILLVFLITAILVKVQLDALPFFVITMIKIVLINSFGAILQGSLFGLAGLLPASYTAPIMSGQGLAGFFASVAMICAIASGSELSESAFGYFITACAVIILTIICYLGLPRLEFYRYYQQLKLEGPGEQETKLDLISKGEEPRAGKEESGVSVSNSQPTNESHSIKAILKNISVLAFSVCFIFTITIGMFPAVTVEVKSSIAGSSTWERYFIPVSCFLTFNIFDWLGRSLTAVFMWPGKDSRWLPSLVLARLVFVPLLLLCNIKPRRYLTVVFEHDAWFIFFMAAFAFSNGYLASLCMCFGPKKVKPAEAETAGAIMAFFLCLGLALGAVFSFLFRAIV
Test: radioligand binding assay with [3H]NBTI on human erythrocyte membranes
Details: for Ki: read-out: Binding Nucleoside Transporter (Ki), [[…] 1.5 nM, 30' at 25° C., 50 mM Tris.HCl pH 7.4

Binding Nucleoside Transporter (value printed as % in the Ki column) ([3H]NBTI 1.5 nM, test concentration not printed (footnote c missing)) [%] | Compound | Ki [nM]
43 | c1ccc(Cn2c(N3CCCC3)nc3c(SCc4ccc5nonc5c4)ncnc32)cc1 [Example 18, 6 (benzo[c][1,2,5]oxadiazole-5-ylmethylsulfanyl)-9-benzyl-8-pyrrolidin-1-yl-9H-purine] | –
– | CNc1nc2c(SCc3ccccc3)ncnc2n1[C@@H]1O[C@H](CO)[C@@H](O)[C@H]1O [Example 1] | 28
– | CCCCCCNc1nc2c(SCc3ccccc3)ncnc2n1[C@@H]1O[C@H](CO)[C@@H](O)[C@H]1O [Example 6] | 3.7
– | 9-benzyl-8-morpholino-6-(4-nitrobenzyl)-mercaptopurine [Example 17] | 51
